{
  "source": "patent US20230027739A1",
  "about": "“ANTIGEN-BINDING AND ANTIGEN D[…]” (Entrada Therapeutics, Inc., priority 2021, published 2023)",
  "origin": "cited, not measured here",
  "conditions": "theoretical values as reported by Tien, et al.",
  "data": [
    {"smiles": "O=C(O)[C@@H]1CCCN1", "note": "[Proline]", "values": [
      {"measurement": "Amino Acid SASA Values, Theoretical", "result": 159.0, "unit": "Å^2"}
    ]}
  ]
}
